Results reported in US4801604A (priority 1987, dated 1989).

Key:
Conditions in all cases: Example 7 Table 2, SC
[1] = system: Female CF-1 derived Upjohn mice; test: Tail pinch analgesic test
[2] = system: Female CF-1 derived Upjohn mice; test: HCl writhing analgesic test
[3] = system: Female CF-1 derived Upjohn mice; test: Tail flick analgesic test

O=C(Cc1ccc(Cl)c(Cl)c1)N[C@@H]1CCC[C@@H]1N1CCCC1 (relative stereo)
Analgesic Screens ED50, Tail Pinch [1]: 71 mg/kg | Analgesic Screens ED50, HCl Writhing [2]: 71 mg/kg | Analgesic Screens ED50, Tail Flick [3]: 63 mg/kg
